Data reported in ChEMBL document CHEMBL6115005, “New phenylpiperazine-thiazolidine-2,4-dione hybrids targeting MAO inhibition: Synthesis, biological evaluation, kinetic study and in silico insights” (Bioorg Med Chem, 2025).

Organism: Homo sapiens
Assay: Selectivity index, ratio of IC50 for inhibition of human MAO-B using benzylamine as substrate to IC50 for inhibition of human MAO-A using kynuramine as substrate

Ratio IC50: 2.55
Compound: O=C1S/C(=C\c2ccc(N3CCN(c4ccc(F)cc4)CC3)cc2)C(=O)N1Cc1ccccc1
